Data reported in ChEMBL document CHEMBL1131073, “Structure-activity study of the nociceptin(1-13)-NH2 N-terminal tetrapeptide and discovery of a nociceptin receptor antagonist” (J Med Chem, 1998).

Organism: Mus musculus
Test: The maximal effect induced by an agonist expressed as percent inhibition of electrically induced twitches.
Type: functional
Method in brief: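 Vas deferens from Swiss male mice (25–30 g), prepared per Hughes, in Mg2+-free Krebs (95% O2/5% CO2, pH 7.4) at 33 °C, 0.3 g resting tension. Field stimulation via platinum ring electrodes: supramaximal 1-ms pulses, 0.1 Hz. Isotonic twitch recording. After ~2 h equilibration, cumulative concentration–response curves in 0.5 log steps. Mean ± SEM of at least four experiments; pEC50 with 95% confidence limits.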

SMILES: CC(C)C[C@H](NC(=O)[C@H](CCCCN)NC(=O)[C@H](CCCNC(=N)N)NC(=O)[C@H](C)NC(=O)[C@H](CO)NC(=O)[C@H](CCCCN)NC(=O)[C@H](CCCNC(=N)N)NC(=O)[C@H](C)NC(=O)CNC(=O)[C@@H](NC(=O)[C@H](Cc1ccccc1)NC(=O)CNC(=O)CNC(=O)[C@@H](N)Cc1ccccc1)[C@@H](C)O)C(=O)N[C@@H](C)C(=O)N[C@@H](CC(N)=O)C(=O)N[C@@H](CCC(N)=O)C(N)=O [NOCICEPTIN-NH2]
- Emax: -79
